According to US20120015352A1, “METHOD OF DETERMINING SENSITIVITY OF HUMAN OR NON-HUMAN ANIMAL CELLS TO AN IAP ANTAGONIST” (Otto-von-Guericke-Universitat Magdeburg, priority 2009, published 2012):

Experiments:
A549 cells = test: Knockdown of cFLIP, AnnexinV/propidium iodide FACS apoptosis; type: cell-based; details: cFLIP siRNA; 100 ng/ml TNFα, 24 hr
Method: (§1) Knockdown of cFLIP. Cell lines were plated into 24 well plates at a density of 35,000 cells per well. Next day, cell lines were transfected with 100 nM control siRNA or siRNA designed to silence expression of cFLIP (L & S isoform). 48 hrs after transfection cells were treated with 100 ng/ml TNFα, 100 nM Smac mimetic, or the combination of both. (The Smac mimetic used herein was a compound other than Compound A.) After an additional 24 hr incubation, all cells were harvested and stained with FITC labeled AnnexinV and Propidium Iodode. Staining was analyzed by flow cytometry.

IGROV-1 cells = test: as above; type: cell-based; details: cFLIP siRNA; 100 ng/ml TNFα, 24 hr
Method: as §1

TNFα: TNF alpha, death ligand used at 100 ng/ml
sensitization (apoptosis) to TNFα alone (A549 cells): No significant sensitization
sensitization (apoptosis) to TNFα alone (IGROV-1 cells): No significant sensitization
